# This is a selection; strong and weak results do not stand in their true shares. Some salts and complexes are drawn in separate pieces, as the source files them; their charges need not balance. The source made the active and inactive calls. No stated cut-off is given here; in the data, active means inhibition above about 80%; inconclusive means no clear call, values can overlap the other calls; inactive means below that.
# Experiment: NOMO-1 AML cell viability reduction, primary screen, STK33 inhibitor project, CellTiter-Glo luminescence (AID 2330)
# Conditions: NOMO-1 AML viability, 72 h, stronger effect = higher value, concentration not given here
row,Structure (SMILES),inhibition
1,C/C1=C2N=C(/C=C3N=C(/C(C)=C4\[N-][C@@](C)([C@@H]5N=C1[C@](C)(CCC(=O)NCC(C)OP(=O)(O)O[C@@H]1[C@H](O)[C@H](n6cnc7cc(C)c(C)cc76)O[C@H]1CO)[C@H]5CC(N)=O)[C@@](C)(CC(N)=O)[C@@H]4CCC(N)=O)[C@@](C)(CC(N)=O)[C@@H]\3CCC(N)=O)C(C)(C)[C@@H]/2CCC(N)=O.[C-]#N.[Co+3] (some centres not stated),inactive: 16.4%
2,CC(Cc1ccc(O)cc1)NCC(O)c1cc(O)cc(O)c1 (configuration not stated),inactive: -10%
3,O=C(OC1CN2CCC1CC2)c1ccc(Cl)cc1 (configuration not stated),inactive: 13.8%
4,Cc1ccc(C(=O)OC2CN3CCC2CC3)cc1 (configuration not stated),inactive: -8.04%
5,O=P1(Nc2ccccn2)COc2ccccc2OC1,inactive: 21.7%
6,COc1cc2c(cc1NP(C)(=O)Oc1ccccc1)oc1ccccc12 (configuration not stated),inactive: 62.5%
7,CN(C(=O)Cc1ccc(Cl)c(Cl)c1)[C@H]1CCCC[C@@H]1N1CCCC1,inactive: 25.7%
